Details: mouse

CC(C)C[C@@H]1NC(=O)[C@H](CC(=O)O)NC(=O)CNC(=O)[C@H](CCCNC(=N)N)NC(=O)[C@H](CC(C)C)NC(=O)[C@H](CC(N)=O)NC(=O)[C@@H]2C[C@@H](O)CN2C(=O)[C@H](C(C)C)NC(=O)[C@@H](NC(=O)[C@H](CC(N)=O)NC(=O)CCCC[C@@H]2SC[C@@H]3NC(=O)N[C@@H]32)CSc2c(F)c(F)c(c(F)c2F)-c2c(F)c(F)c(c(F)c2F)SC[C@@H](C(=O)N[C@H](CCCNC(=N)N)C(=O)N[C@H](C(=O)N[C@@H](CCCCN)C(=O)N[C@H](C)C(N)=O)[C@@H](C)O)NC(=O)[C@H](C(C)C)NC(=O)[C@H](CCCCN)NC(=O)[C@H](CCC(N)=O)NC(=O)[C@H](C)NC(=O)[C@H](CC(C)C)NC(=O)[C@H](C(C)C)NC(=O)[C@H](CCC(N)=O)NC1=O [C2C18 Ph RDTKAD DFBP]
t1/2 of intact peptide in serum: 6.611 h

— paper PMC8138772 (The Journal of Biological Chemistry, 2021)
